The results in this text go back to US5587392A, “Azolyl methyl phenyl derivatives having aromatase inhibitory activity” (Mochida Pharmaceutical Co., Ltd., priority 1994, dated 1996).

The test system of this test is plasma estradiol. In words: Decreasing activity on blood estrogen (plasma estradiol, PMSG-treated rats). The class given is in vivo, female SD rats. The settings on record: Rattus norvegicus, po, 4 h, read-out: Ratio in plasma estradiol decrease. The method, then:
More specifically, pregnant mare serum gonadotropin (PMSG) was subcutaneously administered to female SD rats aged 3 weeks, at a dose of 200 IU/rat. […] Four hours after the dosing of the test compound, blood was sampled, and plasma estradiol was messuered by radioimmunoassay(RIA). The decreasing ratio (%) in plasma estradiol levels was calculated by comparing with control groups.

Each structure is given as a SMILES string.

With `N#Cc1ccc(C2CCCc3cncn32)cc1` (stereo not drawn) [CGS 16949A, 5-(p-cyanophenyl)-5,6,7,8-tetrahydroimidazo[1,5-a]pyridine], the inhibition in vivo at 0.001 mg/kg came out at 44%, the inhibition in vivo at 0.01 mg/kg is 81% and the inhibition in vivo at 0.1 mg/kg is 94%.
